Only a part is listed here, and it is no random draw. Results filed as inconclusive are left out. Calls of active or inactive are those of the source. Calls follow the shape of the dose curve; as a rule, active = well fitted inhibition curve with a large enough effect; inconclusive = small, poorly fitted or top-dose-only effect; inactive = no such curve, though single readings can be large or run the other way.
Assay: qHTS for Inhibitors of TGF-b: Hit Validation in HepG2 Cells using COP promoter;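 also: 0% = TGF-beta stimulated DMSO wells and -100% = unstimulated cell wells; nearly all actives have a fitted effect of over 70% in size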
Conditions: HepG2 COP-GFP TGF-b reporter, GFP fluorescence, 18 h, cells stimulated by added recombinant TGF-beta; at 46.1 µM (top of the series)
Excerpt: TGF-b is a main component in the TGF-b signaling pathway which plays diverse roles in cellular and development pathways. TGF-b is the mediated by the transcription factors Smads. Although the Smad-dependent pathway is the primary canonical TGF-b signaling node, TGF-b1 can also activate alternative signaling pathways, including those involving MAPK (ERK, JNK and p38). This interaction may mediate or enhance Smad-dependent responses, or can exert Smad-independent effects. The complexity of this signaling cascade allows the TGF-b superfamily to perform unique, overlapping or redundant functions. […] We aim to identify Smad3-small molecule antagonists using a quantitative high throughput screening (qHTS) approach. […]
Suspensions of trypsinized HEPG2 COP-GFP cells were dispensed into white, tissue culture-treated, solid 1536-well plates at 5uL/well (1000 cells/well final concentration) in DMEM medium supplemented with 1% FBS. […] The plates were measured on an Acumen eX3 Explorer plate reader for GFP fluorescence (ex488/em500-530). GFP values were calculated by determining the mean GFP fluorescence of individual cells, and compiling these values for each well to determine a total well GFP signal. The %Activity was determined from the corrected fluorescence values. […] Concentration-response curves were fitted to the signals arising from the resulting fluorescence. […]

| SMILES | activity, negative = inhibition |
| --- | --- |
| O=c1c2cc([N+](=O)[O-])ccc2[nH]c2c([N+](=O)[O-])cc([N+](=O)[O-])cc12 | inactive: -66% |
